Growth inhibition data for 19 compounds are collected here from PubChem BioAssay (NCI).

Each structure is given as a SMILES string. Only a part is listed here, and it is no random draw. Some structures show a salt or complex split into parts, the way the source records it. Activity calls are given as the source filed them. Cut-off read from the data, not from the text of the source: active = growth inhibition above about 70%; inactive = the rest.

Assay [1] is described as follows: NCI Yeast Anticancer Drug Screen. Data for the rad50 strain (AID 155).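 Note: 0% = growth of vehicle-only cultures of the same strain.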 The settings on record: S. cerevisiae rad50 strain growth inhibition; at 50.0 µM; stronger effect = higher value.
Assay [2] is described as follows: NCI Yeast Anticancer Drug Screen. Data for the mec2-1 strain (AID 157). To be noted: S. cerevisiae mec2-1 strain, at 50.0 µM, stronger effect = higher value.
Assay [3] in a line: NCI Yeast Anticancer Drug Screen. Data for the sgs1 mgt1 strain (AID 161).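 Note: 0% = growth of cultures given vehicle only.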 To be noted: S. cerevisiae sgs1 mgt1 strain, at 50.0 µM, stronger effect = higher value.
The nature of assay [4]: NCI Yeast Anticancer Drug Screen. Data for the cln2 rad14 strain (AID 165).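 Note: 0% = growth equal to vehicle treated cultures.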 To be noted: S. cerevisiae cln2 rad14 strain, at 50.0 µM, stronger effect = higher value.
Assay [5] in a line: NCI Yeast Anticancer Drug Screen. Data for the bub3 strain (AID 167). To be noted: S. cerevisiae bub3 mutant strain, at 50.0 µM, stronger effect = higher value.
Assay [6] is described as follows: NCI Yeast Anticancer Drug Screen. Data for the mlh1 rad18 strain (AID 175). The settings on record: S. cerevisiae mlh1 rad18 strain growth inhibition; at 50.0 µM; stronger effect = higher value.

As to `CN(C)c1ccc(N=O)cc1.[C-]#N.[C-]#N.[C-]#N.[C-]#N.[C-]#N.[Fe+6]`, the growth inhibition in assay [1] is inactive: 20%; in assay [2] it was inactive: 8.5%; in assay [3], inactive: 32.2%; in assay [4] it was inactive: 36%; in assay [5], inactive: 44.9%; in assay [6], inactive: 21.6%.
As for `CCC1C(=O)CCCCN1C.O=[N+]([O-])c1cc([N+](=O)[O-])c(O)c([N+](=O)[O-])c1`, the growth inhibition in assay [1] was inactive: 41.1%; in assay [2] it was inactive: 14.9%; in assay [3] it was inactive: 40.2%; in assay [4], inactive: 24.7%; in assay [5], inactive: 4.3%; in assay [6], inactive: 38%.
Take `O=C(NCCC(F)([N+](=O)[O-])[N+](=O)[O-])NCCC(F)([N+](=O)[O-])[N+](=O)[O-]`: the growth inhibition in assay [1] is inactive: 49.5%; in assay [2] it was inactive: 28.1%; in assay [3], active: 73.9%; in assay [4], inactive: 43.1%; in assay [5] it was inactive: 42.1%; in assay [6], active: 73.8%.
With `COc1nncc2ccccc12.O=[N+]([O-])c1cc([N+](=O)[O-])c(O)c([N+](=O)[O-])c1`, the growth inhibition in assay [1] is inactive: 46.8%; in assay [2] it was inactive: 4.25%; in assay [3], inactive: 29.5%; in assay [4], inactive: -3.05%; in assay [5], inactive: 2.7%; in assay [6], inactive: 8.05%.
Turning to `CCN(CCO)CCCO.O=[N+]([O-])c1cc([N+](=O)[O-])c(O)c([N+](=O)[O-])c1`, the growth inhibition in assay [1] is inactive: 24.4%; in assay [2], inactive: 3.8%; in assay [3] it was inactive: 16.4%; in assay [4], inactive: 7.25%; in assay [5], inactive: 2.1%; in assay [6], inactive: 16.9%.
In the case of `CC(C)OP(C)(=O)O.[Cr]`, the growth inhibition is inactive: 5% in assay [1]; inactive: -20.1% in assay [2]; inactive: 1.35% in assay [3]; inactive: -41.9% in assay [4]; inactive: -3% in assay [5]; inactive: -14.3% in assay [6].
With `C/C1=C\C(=O)OCC23CCC4(C)OC4C2OC2CC(OC(=O)/C=C/C=C/C(=O)OCC1)C3(C)C21CO1` (centres undefined), the growth inhibition in assay [1] is active: 92.2%; in assay [2], active: 93.3%; in assay [3], active: 92.7%; in assay [4], active: 91.5%; in assay [5], active: 91.7%; in assay [6], active: 91.1%.
Consider `CCCCCCCCCCOP(=O)(Cl)CC` (centres undefined), for which the growth inhibition was inactive: -8% in assay [1]; inactive: -3.95% in assay [2]; inactive: -2.65% in assay [3]; inactive: -5.85% in assay [4]; inactive: 3.9% in assay [5]; inactive: -19.1% in assay [6].
`CCCSC(=N)N.O=[N+]([O-])c1cc([N+](=O)[O-])c(O)c([N+](=O)[O-])c1`: the growth inhibition in assay [1] is inactive: -6.7%; in assay [2] it was inactive: -11.4%; in assay [3], inactive: -8%; in assay [4] it was inactive: -41.8%; in assay [5], inactive: 23.6%; in assay [6], inactive: -0.2%.
For `NCc1ccccn1.O=[N+]([O-])c1cc([N+](=O)[O-])c(O)c([N+](=O)[O-])c1`, the growth inhibition in assay [1] is inactive: 11.6%; in assay [2], inactive: 19.9%; in assay [3] it was inactive: 9.6%; in assay [4], inactive: -7.5%; in assay [5], inactive: 28.4%; in assay [6] it was inactive: 19.2%.
As to `CN[N+](=O)[O-]`, the growth inhibition is inactive: -3.95% in assay [1]; inactive: 0.65% in assay [2]; inactive: -20.4% in assay [3]; inactive: 19.2% in assay [4]; inactive: 15% in assay [5]; inactive: -2.6% in assay [6].
Turning to `O=[N+]([O-])c1cc([N+](=O)[O-])c(O)c([N+](=O)[O-])c1.OCCNC1CCCCC1`, the growth inhibition was inactive: -1.9% in assay [1]; inactive: 9.45% in assay [2]; inactive: 0.65% in assay [3]; inactive: -36% in assay [4]; inactive: -13.3% in assay [5]; inactive: 4.45% in assay [6].
Regarding `CCCOP(=S)(Cl)OCCC`, the growth inhibition in assay [1] was inactive: 10.2%; in assay [2], inactive: 10.3%; in assay [3] it was inactive: 2.65%; in assay [4], inactive: 10.5%; in assay [5], inactive: -8.55%; in assay [6] it was inactive: 12.7%.
For `OCCSCCO`, the growth inhibition in assay [1] was inactive: 51.8%; in assay [2] it was inactive: 10.5%; in assay [3] it was inactive: 57.2%; in assay [4], inactive: -31.4%; in assay [5], inactive: 1.35%; in assay [6], inactive: 64.7%.
Take `CCCCN(CCCC)CCCC#N.O=[N+]([O-])c1cc([N+](=O)[O-])c(O)c([N+](=O)[O-])c1`: the growth inhibition in assay [1] was inactive: 29.2%; in assay [2], inactive: 13.6%; in assay [3], inactive: 18.7%; in assay [4], inactive: 9.35%; in assay [5], inactive: 0%; in assay [6], inactive: 18.8%.
`CCN(CC)CCOC(=O)C(O)(c1ccccc1)c1ccc(C)c(C)c1` (centres undefined): the growth inhibition in assay [1] was inactive: -1.2%; in assay [2] it was inactive: -8.3%; in assay [3], inactive: -5.35%; in assay [4], inactive: 3.95%; in assay [5], inactive: 8.1%; in assay [6], inactive: 0.45%.
Consider `COc1c([N+](=O)[O-])cc(Cc2cc([N+](=O)[O-])c(OC)c([N+](=O)[O-])c2)cc1[N+](=O)[O-]`, for which the growth inhibition in assay [1] is inactive: 14.2%; in assay [2], inactive: -0.8%; in assay [3], inactive: 8.25%; in assay [4] it was inactive: 0.35%; in assay [5], inactive: -0.4%; in assay [6] it was inactive: 7.6%.
As for `Br.C[N+]12CCCN(CC1)CC2.O=[N+]([O-])c1cc([N+](=O)[O-])c(O)c([N+](=O)[O-])c1.[Br-]`, the growth inhibition was inactive: -3% in assay [1]; inactive: 4.2% in assay [2]; inactive: 12.8% in assay [3]; inactive: 17.4% in assay [4]; inactive: -3.7% in assay [5]; inactive: 9.5% in assay [6].
Regarding `Cc1ccc(N(C)C)cc1.O=[N+]([O-])c1cc([N+](=O)[O-])c(O)c([N+](=O)[O-])c1`, the growth inhibition in assay [1] was inactive: -1.85%; in assay [2], inactive: -11.8%; in assay [3], inactive: 5.55%; in assay [4], inactive: 6.75%; in assay [5] it was inactive: 1.15%; in assay [6], inactive: 0.4%.
